{
  "sequences": {"note": "The chains behind the UniProt entries cited, without tags or fusion partners. Where a name states a change or a piece, a line headed by the entry shows the natural chain unless it says otherwise.", "UniProt P32755": "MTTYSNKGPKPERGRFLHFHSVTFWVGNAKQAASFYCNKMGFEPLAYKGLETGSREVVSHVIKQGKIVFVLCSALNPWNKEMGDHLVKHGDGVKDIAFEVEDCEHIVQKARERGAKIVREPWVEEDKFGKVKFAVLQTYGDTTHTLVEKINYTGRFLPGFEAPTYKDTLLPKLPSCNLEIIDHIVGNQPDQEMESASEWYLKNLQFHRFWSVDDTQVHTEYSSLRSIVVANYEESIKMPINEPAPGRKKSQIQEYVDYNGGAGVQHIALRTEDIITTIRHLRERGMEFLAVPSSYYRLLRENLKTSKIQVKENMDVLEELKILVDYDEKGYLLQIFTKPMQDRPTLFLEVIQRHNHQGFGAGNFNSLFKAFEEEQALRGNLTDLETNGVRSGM"},
  "source": "patent US20090326072A1",
  "about": "“USE OF 2-(2-NITRO-4-TRIFLUOROMETHYLBENZOYL)-l,3- CYCLOHEXANEDIONE IN THE TREATMENT OF PARKINSON'S DISEASE” (priority 2005, published 2009)",
  "key": {"[1]": {"tested_on": "plasma tyrosine", "details": "AMPT rats, sampled after behavioral assessment", "experimental": "The effect was compared with appropriate vehicle control groups (oral vehicle was 1% carboxymethylcellulose; CMC) and a group that received a 150 mg/kg i.p. dose of L-dopa."}, "[2]": {"target": "T1, 4-hydroxyphenyl pyruvate dioxygenase (HPPD) (Rattus norvegicus, UniProt P32755)", "T1 construct": "rat liver cytosol (2.7 mg of protein/ml incubate); from tissue; host or cells: rat liver (cytosol, 110,000 g supernatant)", "experiment": "Determination of 4-hydroxyphenyl pyruvate dioxygenase (HPPD) enzyme activity in vitro (rate of oxygen consumption, rat liver cytosol)", "type": "biochemical", "experimental": "The principle of the assay is that 4-hydroxyphenyl pyruvate dioxygenase (HPPD), an enzyme that participates in the catabolism of tyrosine, catalyses the oxidative decarboxylation and rearrangement of 4-hydroxyphenylpyruvate (HPPA) to homogentisate, with the incorporation of both atoms of molecular oxygen into the product.\nRat liver was homogenised in buffer of the following composition; 0.25 M Sucrose, 5.4 mM EDTA, 20 mM Tris base, pH 7.4, (25% homogenate) using 6 passes of a Potter type homogeniser. The homogenate was then centrifuged at 1,800 g for 10 minutes at 4° C., the pellet was discarded and the supernatant centrifuged at 17,000 g for a further 15 minutes at 4° C. The pellet was then discarded and the supernatant centrifuged at 110,000 g for 80 minutes at 4° C. The supernatant containing the HPPD enzyme from this 110,000 g spin was collected and stored frozen at −70° C. and used in the assays of the test compounds (see below).\nPrior to the start of the enzymatic reaction by the addition of HPPA substrate, the enzyme and test compound (inhibitor) were incubated together for 3 minutes.\nIn cases where the effects of several concentrations of an inhibitor were investigated, an IC50 value (the half-maximal inhibitory concentration of test compound) was determined by plotting the data using a non-linear regression curve-fitting program using a GraphPad Prism™ software package.\nData are expressed as mean values from two experiments except where indicated. Where appropriate the values are expressed as the mean±standard deviation."}},
  "note": "Where two headings read alike, the source gives them in different places.",
  "data": [
    {"smiles": "O=C1CCCC(O)=C1C(=O)c1ccc(C(F)(F)F)cc1[N+](=O)[O-]", "note": "[Compound 2, 2-(2-Nitro-4-Trifluoromethylbenzoyl)-1,3-Cyclohexanedione]", "values": [
      {"measurement": "plasma tyrosine concentration (mean)", "setting": "[1]; 2 mg/kg oral 4 hours post AMPT dose", "value": "345 ± 45", "unit": "nmol/mL"},
      {"measurement": "plasma tyrosine concentration (mean)", "setting": "[1]; 2 mg/kg oral 16 hours prior to AMPT", "value": "2205 ± 238", "unit": "nmol/mL"},
      {"measurement": "IC50", "setting": "[2]", "value": "0.086 ± 0.0024", "unit": "µM"},
      {"measurement": "inhibition at 0.1 µM", "setting": "[2]; read-out: % Inhibition at 100 nM", "value": "64 ± 1.6", "unit": "%"},
      {"measurement": "inhibition at 0.3 µM", "setting": "[2]; read-out: % inhibition at 300 nM", "value": "94 ± 0.9", "unit": "%"}
    ]}
  ]
}
